Measured values from patent US20250262222A1, “HETEROCYCLIC COMPOUNDS, COMPOSITIONS THEREOF, AND METHODS OF TREATMENT THEREWITH” (BeiGene Switzerland GmbH, priority 2022, published 2025).

Sequences of proteins named here, by UniProt entry; tags and fusion partners are left off. A change or cut given only in a name is not applied to a line headed by its entry. Residues count along the entry.
UniProt P01116, 1-169 isoform 2 G12V limits assumed: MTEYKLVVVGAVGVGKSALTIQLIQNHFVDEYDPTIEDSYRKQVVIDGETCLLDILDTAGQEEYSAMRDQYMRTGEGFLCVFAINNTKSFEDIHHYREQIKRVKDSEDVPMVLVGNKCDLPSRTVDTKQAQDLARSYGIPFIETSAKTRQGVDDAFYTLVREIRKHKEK

Tests used:
[1] = tested on: pERK1/2(THR202/TYR204) level in SW620 cell line; experiment: KRAS G12V pERK assay; settings: read-out: SW620 pERK IC50; SW620 cells, 2 hrs compound treatment, HTRF
Experimental: SW620 cell line was used in this study. Cells were maintained in RPMI 1640 supplemented with 10% fetal bovine serum (Thermo Fisher), 50 units/mL penicillin and streptomycin (Thermo Fisher) and kept at 37° C. in a humidified atmosphere of 5% CO2 in air. Cells were reinstated from frozen stocks that were laid down within 30 passages from the original cells purchased. 40000 cells per well were seeded into a 96-well plate and incubated overnight. Cells were treated with a 10-point dilution series. The final compound concentration is from 0 to 10 μM. After 2 hrs compound treatment, cells were lysed, and the pERK1/2(THR202/TYR204) level in the cell lysates was detected by HTRF kit (Cisbio). In brief, a total of 16 μL of cell lysate from each well of a 96-well plate was transferred to a 384-well white assay plate. Lysate from each well was incubated with 2 μL of Eu3+-cryptate (donor) labeled anti-phospho-ERK1/2 and 2 μL of D2 (acceptor) labeled anti-phospho-ERK1/2 antibodies (Cisbio) overnight in dark at room temperature. When donor and acceptor are in close proximity, excitation of the donor with laser triggers a Fluorescence Resonance Energy Transfer (FRET) towards the acceptor, which in turn fluoresces at 655 nm wavelength. FRET signals were measured using a PHERAstar FSX reader (BMG Labtech). […]

[2] = target: GST-tagged GDP-loaded KRAS G12V (amino acids 1-169) (Homo sapiens, UniProt P01116, G12V); experiment: KRAS G12V probe displacement assay; settings: read-out: KRAS^G12V Probe Displacement Assay IC50; TR-FRET, 2 nM KRAS G12V, biotinylated probe 2
[3] = target: GST-tagged GDP-loaded WT KRAS (amino acids 1-169) (Homo sapiens, UniProt P01116); experiment: KRAS WT probe displacement assay (run with KRAS G12V, Table 2); settings: read-out: KRAS^WT Probe Displacement Assay IC50, TR-FRET, 3 nM WT KRAS, biotinylated probe 1

Nc1cc(Cl)c(C(F)(F)F)c(-c2nc3c4c(nc(OC[C@@]56CCCN5C[C@H](F)C6)nc4c2F)N2CCCOC[C@H]2CO3)c1
IC50 [1]: 40 nM
IC50 [2]: 0.88 nM
IC50 [3]: 0.65 nM
